Laboratory results as given in ChEMBL document CHEMBL3638841, “Aryl- and heteroaryl-substituted tetrahydroisoquinolines and use thereof to block reuptake of norepinephrine, dopamine, and serotonin” (2015).

By UniProt entry, the sequences of proteins in these tests, tags left out.
UniProt P23975, whole entry: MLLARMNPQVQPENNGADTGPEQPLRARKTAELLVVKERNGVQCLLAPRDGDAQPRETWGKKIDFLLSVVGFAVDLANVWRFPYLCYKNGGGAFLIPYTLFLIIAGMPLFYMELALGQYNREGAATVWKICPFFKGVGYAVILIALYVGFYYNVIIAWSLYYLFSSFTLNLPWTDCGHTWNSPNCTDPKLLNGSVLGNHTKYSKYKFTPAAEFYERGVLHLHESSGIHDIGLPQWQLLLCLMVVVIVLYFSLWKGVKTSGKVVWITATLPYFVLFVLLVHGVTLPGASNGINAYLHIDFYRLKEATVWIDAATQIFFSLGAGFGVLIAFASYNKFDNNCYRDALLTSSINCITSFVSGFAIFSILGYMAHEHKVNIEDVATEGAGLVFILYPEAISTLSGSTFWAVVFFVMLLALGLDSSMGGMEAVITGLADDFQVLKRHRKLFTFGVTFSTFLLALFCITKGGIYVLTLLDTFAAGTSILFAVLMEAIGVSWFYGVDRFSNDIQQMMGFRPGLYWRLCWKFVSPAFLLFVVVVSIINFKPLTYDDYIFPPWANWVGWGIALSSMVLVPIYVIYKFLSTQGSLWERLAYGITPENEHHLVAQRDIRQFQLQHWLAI

Biological target: Sodium-dependent noradrenaline transporter (Homo sapiens, UniProt P23975)
Test: Binding Assay: In order to evaluate the relative affinity of the various compounds at the NE, DA and 5HT transporters, HEK293E cell lines were developed to express each of the three human transporters. cDNAs containing the complete coding regions of each transporter were amplified by PCR from human brain libraries. The cDNAs contained in pCRII vectors were sequenced to verify their identity and …
Format: cell-based

In the case of `CN1Cc2ccccc2C(c2ccc3[nH]ncc3c2)C1Cl` (stereo unspecified), the Ki is reported as 2.6 nM.
